This note sets out measurements from ChEMBL document CHEMBL3286167 (J Med Chem, 2014).

Sequences of proteins named here, by UniProt entry; tags and fusion partners are left off.
UniProt P20789, whole entry: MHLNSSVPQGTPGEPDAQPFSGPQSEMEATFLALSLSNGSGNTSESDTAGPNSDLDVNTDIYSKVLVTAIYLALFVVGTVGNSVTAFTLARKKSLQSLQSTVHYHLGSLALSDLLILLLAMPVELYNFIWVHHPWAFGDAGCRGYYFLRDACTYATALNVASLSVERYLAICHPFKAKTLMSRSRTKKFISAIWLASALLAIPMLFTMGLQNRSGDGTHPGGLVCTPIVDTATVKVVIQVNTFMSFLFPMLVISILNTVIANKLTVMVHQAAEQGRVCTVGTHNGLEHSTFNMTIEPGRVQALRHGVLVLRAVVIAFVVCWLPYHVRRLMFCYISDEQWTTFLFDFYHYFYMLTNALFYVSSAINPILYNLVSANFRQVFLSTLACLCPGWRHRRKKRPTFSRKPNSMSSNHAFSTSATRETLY

Each structure is given as a SMILES string. The source made the active and inactive calls. The calls are words filed in the database; no cut-off is given here.

Test [1] addresses T1, Neurotensin receptor type 2 (Rattus norvegicus) (UniProt Q63384).
T1 sequence (whole entry): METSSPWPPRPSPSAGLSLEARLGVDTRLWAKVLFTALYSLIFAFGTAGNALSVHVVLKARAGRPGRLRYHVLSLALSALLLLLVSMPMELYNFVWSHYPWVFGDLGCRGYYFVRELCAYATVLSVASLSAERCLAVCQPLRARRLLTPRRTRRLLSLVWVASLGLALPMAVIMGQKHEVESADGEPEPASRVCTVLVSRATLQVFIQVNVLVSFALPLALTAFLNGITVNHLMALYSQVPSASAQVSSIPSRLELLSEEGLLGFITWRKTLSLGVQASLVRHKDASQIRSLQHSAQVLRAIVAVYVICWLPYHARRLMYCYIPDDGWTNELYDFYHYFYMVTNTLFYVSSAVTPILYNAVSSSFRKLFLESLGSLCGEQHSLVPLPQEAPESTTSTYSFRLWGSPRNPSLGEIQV
Briefly: Agonist activity at rat NTS2 stably expressed in CHOK1 cells assessed as induction of calcium release by FLIPR assay relative to SR142948a. In kind it is functional, cell-based. Conditions: CHO-K1. A digest of the protocol: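 Rat NTS2 expressed in CHO-k1 cells, plated at 25000/well the day before the assay. Cells were loaded with Calcium 5 dye (1:20 in HBSS, 20 mM HEPES, 2.5 mM probenecid, pH 7.4) for 45 min at 37 °C, then pretreated with 10% DMSO added 1:10. Full-log compound dilutions were read on FLIPR Tetra every second for 100 s. Emax is expressed as % of the full-agonist standard; EC50 from a three-parameter logistic fit; at least three experiments in duplicate.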

Test [2] concerns the target Neurotensin receptor type 1 (Rattus norvegicus) (UniProt P20789). Briefly: Antagonist activity at rat NTS1 stably expressed in CHOK1 cells assessed as inhibition of NT-induced calcium release by FLIPR assay. In kind it is functional, cell-based. Conditions: CHO-K1. The essentials:
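Rat NTS1 CHO-k1 cells, plated at 30000/well on the assay day. Cells were loaded with Calcium 5 dye (1:40 in HBSS, 20 mM HEPES, 2.5 mM probenecid, pH 7.4) for 45 min at 37 °C, then preincubated with compound for 15 min. […] Fluorescence (ex 485/em 525 nm) read for 60 s on FlexStation II; three-parameter logistic fit; at least three experiments in duplicate.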

`COc1cccc(OC)c1-c1cc(C(=O)NC2C3CC4CC(C3)CC2C4)nn1-c1ccnc2cc(Cl)ccc12` (stereo not drawn): in test [1], the Emax entry is “inactive”. Further, in test [2], the Ke entry is “inactive”.

Take `C[C@@H]1CN([C@H]2CC[C@](C#N)(c3ccc(F)cc3)CC2)CC[C@]1(C(=O)O)c1ccccc1` [LEVOCABASTINE]: in test [2], the Ke entry was “inactive”.
